Data on one compound can be found in ChEMBL document CHEMBL4823262, “Discovery of a Vitamin D Receptor-Silent Vitamin D Derivative That Impairs Sterol Regulatory Element-Binding Protein In Vivo” (J Med Chem, 2021).

The source made the active and inactive calls. No cut-off for these calls is given here.

The target in assay [1] is T1, Sterol regulatory element-binding protein cleavage-activating protein (Homo sapiens) (UniProt Q12770).
T1 sequence (whole entry): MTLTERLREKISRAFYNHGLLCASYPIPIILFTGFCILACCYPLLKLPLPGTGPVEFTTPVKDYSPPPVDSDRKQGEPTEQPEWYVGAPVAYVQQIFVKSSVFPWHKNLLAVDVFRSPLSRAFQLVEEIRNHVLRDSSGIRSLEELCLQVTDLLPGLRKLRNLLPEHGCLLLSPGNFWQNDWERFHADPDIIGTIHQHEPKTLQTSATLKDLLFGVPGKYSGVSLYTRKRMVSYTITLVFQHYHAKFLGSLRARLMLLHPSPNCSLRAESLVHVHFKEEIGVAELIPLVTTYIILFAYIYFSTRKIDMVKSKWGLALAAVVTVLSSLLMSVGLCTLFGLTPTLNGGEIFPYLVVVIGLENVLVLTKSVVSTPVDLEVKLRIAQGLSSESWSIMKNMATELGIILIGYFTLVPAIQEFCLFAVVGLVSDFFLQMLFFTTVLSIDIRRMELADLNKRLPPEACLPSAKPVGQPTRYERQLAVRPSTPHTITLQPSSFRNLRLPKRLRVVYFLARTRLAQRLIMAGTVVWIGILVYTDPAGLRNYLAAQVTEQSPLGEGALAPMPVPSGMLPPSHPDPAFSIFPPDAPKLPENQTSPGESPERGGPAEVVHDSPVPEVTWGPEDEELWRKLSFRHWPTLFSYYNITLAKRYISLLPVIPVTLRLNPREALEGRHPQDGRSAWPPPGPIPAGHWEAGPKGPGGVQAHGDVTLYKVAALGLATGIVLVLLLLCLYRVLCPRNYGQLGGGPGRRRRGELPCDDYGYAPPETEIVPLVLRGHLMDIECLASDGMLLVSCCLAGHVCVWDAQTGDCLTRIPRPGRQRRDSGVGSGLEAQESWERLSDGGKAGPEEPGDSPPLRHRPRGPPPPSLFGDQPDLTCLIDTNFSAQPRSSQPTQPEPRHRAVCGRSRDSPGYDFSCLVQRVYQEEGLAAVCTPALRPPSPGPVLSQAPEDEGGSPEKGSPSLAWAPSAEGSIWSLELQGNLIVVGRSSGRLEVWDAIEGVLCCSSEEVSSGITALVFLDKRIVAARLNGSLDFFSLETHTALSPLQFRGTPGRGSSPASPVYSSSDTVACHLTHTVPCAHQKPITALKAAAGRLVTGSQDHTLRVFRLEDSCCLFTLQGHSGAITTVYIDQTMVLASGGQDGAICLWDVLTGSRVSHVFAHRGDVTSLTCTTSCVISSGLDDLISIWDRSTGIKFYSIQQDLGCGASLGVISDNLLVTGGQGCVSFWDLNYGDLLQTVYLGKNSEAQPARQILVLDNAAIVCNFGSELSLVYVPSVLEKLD
Nature of the assay: Inhibition of FLAG-tagged SCAP (unknown origin) expressed in CHO-K1 cells assessed as reduction in SCAP protein level at 1 to 5 uM after 24 hrs in presence of proteasome inhibitor MG132 by Western blotting analysis. Particulars: dose 1-5 µM. Type of assay: cell-based.

Assay [2] concerns the target T1, Sterol regulatory element-binding protein cleavage-activating protein (Homo sapiens). Kind of assay: Inhibition of FLAG-tagged SCAP (unknown origin) expressed in CHO-K1 cells assessed as reduction in SCAP protein level at 1 uM after 24 hrs by Western blotting analysis. Type of assay: cell-based. For orientation: In western blotting, separated proteins are transferred to a membrane and probed.

For `C[C@H](CCC(F)(F)C(C)(C)O)[C@H]1CC[C@H]2/C(=C/Cn3nnnc3-c3ccccc3)CCC[C@]12C`, the inhibition entry in assay [1] and in assay [2] was “inactive” in each case.
